# Antibody variant affinities, Ab-14 heavy chain, assay 1

Data: MIT Lincoln Laboratory AlphaSeq set, Engelhart et al. 2022, doi:10.1038/s41597-022-01779-4, as distributed in FLAb.

Binding partner: SARS-CoV-2 spike HR2 peptide, sequence PDVDLGDISGINAS.

Parent scFv Ab-14: VH joined to VL by the linker GGGGSGGGGSGGGGS. Changes lie in the heavy chain CDRs alone.
VH: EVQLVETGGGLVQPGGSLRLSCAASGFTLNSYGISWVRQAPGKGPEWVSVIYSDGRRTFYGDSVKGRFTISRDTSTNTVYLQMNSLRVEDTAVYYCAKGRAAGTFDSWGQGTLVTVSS
VL: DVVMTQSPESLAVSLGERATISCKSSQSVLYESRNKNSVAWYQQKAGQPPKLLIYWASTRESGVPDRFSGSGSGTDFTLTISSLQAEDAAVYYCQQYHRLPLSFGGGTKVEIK

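Phage display of a naive human antibody library on the peptide gave the parent. Library AAYL49 holds single substitutions and randomly drawn double and triple substitutions in the CDRs. The assay is AlphaSeq: two haploid yeast populations carry antibody and antigen on their surface. The frequency of each diploid, read from paired DNA barcodes, reflects how well the two displayed proteins bind. The ratio of observed to expected reads was calibrated, replicate by replicate, on BCL2-family standards whose Kd was known from biolayer interferometry. There are three technical replicates.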

Positions count from residue 1 of the parent VH; L29S puts S in place of L.
This list gathers variants with a substitution at Y52 (VH, numbered from residue 1).
The Kd shown is the geometric mean over detected replicates; a lower Kd is a better binder.
"nd" means that the variant was in the library but no mating with the target was seen in any replicate; the authors take this as a sign of poor binding, and no number exists.

Variant L29S Y52D gave 23 µM (2 of 3 replicates). Variant Y52H G103F showed nd (0 of 3 replicates). With T28V N30T Y52Q the result was 22 µM (2 of 3 replicates). With Y52G F105P the result was 13 µM (1 of 3 replicates). Variant G33T Y52F R57W gave 25 µM (1 of 3 replicates).

For Y52W G61E D62G, the assay gave 240 µM (1 of 3 replicates). With S35D Y52V R57A the result was 55 µM (3 of 3 replicates). For Y52S Y60I S63M, the assay gave nd (0 of 3 replicates). With L29S Y52R D54V the result was 470 nM (1 of 3 replicates). Variant Y52V R57Y S63P showed 52 µM (1 of 3 replicates).

Variant G33S Y52G showed 19 µM (1 of 3 replicates). Variant Y52V K65Q G103V gave nd (0 of 3 replicates). Variant Y52E S53T T104H showed 1.4 mM (2 of 3 replicates). Variant Y52L T58S showed nd (0 of 3 replicates). Variant S31N Y52I A101G showed nd (0 of 3 replicates).

Variant G26W S35Y Y52Q gave nd (0 of 3 replicates). Variant V50D Y52M gave 4.3 µM (3 of 3 replicates). With Y52Q S107R the result was nd (0 of 3 replicates). For Y52K F105K, the assay gave nd (0 of 3 replicates). For Y52P G99R, the assay gave nd (0 of 3 replicates).

Variant G26R Y52D A101E gave 49 µM (1 of 3 replicates). With S35L Y52N S53R the result was 15 µM (2 of 3 replicates). For Y52D G103K S107Y, the assay gave nd (0 of 3 replicates). For G33I Y52E V64R, the assay gave 29 µM (2 of 3 replicates). With T28A Y52S K65D the result was 16 µM (2 of 3 replicates).

For Y52G D62H G99H, the assay gave 1.3 µM (1 of 3 replicates). Variant Y52I G61D A101Q gave 10 µM (2 of 3 replicates). With Y52P R56I the result was nd (0 of 3 replicates). For Y52F G61V, the assay gave 29 nM (3 of 3 replicates). Variant Y52E A101S T104K showed nd (0 of 3 replicates).

Variant Y52K T104R D106L showed 100 µM (1 of 3 replicates). Variant F27K Y52R F59P gave nd (0 of 3 replicates). Variant Y52A R57E V64W gave nd (0 of 3 replicates). Variant G26C Y52S A101Y showed 12 µM (1 of 3 replicates). With Y32K Y52V V64S the result was nd (0 of 3 replicates).

For Y52E T58Q S107W, the assay gave 22 µM (1 of 3 replicates). Variant S31N Y52F G61L showed 9.1 µM (2 of 3 replicates). Variant Y52W D54P gave 15 µM (1 of 3 replicates). For Y52W R56E V64A, the assay gave 81 µM (1 of 3 replicates). With T28S S35M Y52D the result was 6.3 µM (1 of 3 replicates).

Variant Y52Q G55A G103I gave 720 nM (1 of 3 replicates). For S35W Y52C, the assay gave nd (0 of 3 replicates). With I51C Y52C T58S the result was nd (0 of 3 replicates). For T28P G33P Y52E, the assay gave 43 µM (1 of 3 replicates). With I51D Y52W A102M the result was nd (0 of 3 replicates).

Variant Y32L Y52P showed 370 µM (1 of 3 replicates). Variant I51Y Y52N Y60G gave nd (0 of 3 replicates). With Y52V D54E F105M the result was nd (0 of 3 replicates). Variant Y52Q Y60H gave nd (0 of 3 replicates). For T28L Y52M Y60N, the assay gave 72 µM (1 of 3 replicates).

The last 6 entries again:

For I51D Y52W A102M, the assay gave nd (0 of 3 replicates).
For Y32L Y52P, the assay gave 370 µM (1 of 3 replicates).
For I51Y Y52N Y60G, the assay gave nd (0 of 3 replicates).
For Y52V D54E F105M, the assay gave nd (0 of 3 replicates).
For Y52Q Y60H, the assay gave nd (0 of 3 replicates).
For T28L Y52M Y60N, the assay gave 72 µM (1 of 3 replicates).

Nonspecific signal, from three strains lacking the peptide, appeared in 15% of pairings of library AAYL49, centred on 11 µM (5% of these signals below 680 nM); values are not corrected for it.
Parent in this assay: reference entry 4.4 nM, copy in this library 13 µM (one replicate of three).